SMILES strings stand for the structures. The list shows a part of the results, in another mix than the full data. Active and inactive are the calls of the source. Calls come from the whole dose curve; as a rule, active = well fitted inhibition curve with a large enough effect; inconclusive = small, poorly fitted or top-dose-only effect, or effect the other way; inactive = flat fitted curve, though single readings scatter.

Protein sequences, listed by entry. Tags and fused reporters are not part of them. Lines headed by an entry give the natural chain unless they say otherwise; changes in a name come on top.
UniProt P10828: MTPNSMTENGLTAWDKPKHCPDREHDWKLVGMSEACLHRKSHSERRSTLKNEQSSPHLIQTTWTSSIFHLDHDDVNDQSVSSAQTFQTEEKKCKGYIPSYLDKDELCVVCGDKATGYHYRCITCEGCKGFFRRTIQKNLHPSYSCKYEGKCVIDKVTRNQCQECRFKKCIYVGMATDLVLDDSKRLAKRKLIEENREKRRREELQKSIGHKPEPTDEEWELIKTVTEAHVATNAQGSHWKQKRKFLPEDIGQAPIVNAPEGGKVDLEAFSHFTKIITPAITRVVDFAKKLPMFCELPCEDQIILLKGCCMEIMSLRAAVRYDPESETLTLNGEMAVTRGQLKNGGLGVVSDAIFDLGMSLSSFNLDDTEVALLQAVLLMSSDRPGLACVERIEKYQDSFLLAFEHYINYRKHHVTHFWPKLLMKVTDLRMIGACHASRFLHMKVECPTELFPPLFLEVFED

This passage reports activity change, negative = inhibition results from PubChem BioAssay AID1469 (National Center for Advancing Translational Sciences (NCATS), 2008).

The target of this assay is Thyroid hormone receptor beta (Homo sapiens) (UniProt P10828). The experiment in a line: qHTS for Inhibitors of the Interaction of Thyroid Hormone Receptor and Steroid Receptor Coregulator 2.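 Note: plate controls were bound peptide for no effect and peptide without receptor for full effect; nearly all actives have a fitted effect of over 50% in size.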 To be noted: TRbeta-SRC2 peptide binding, fluorescence polarization, receptor liganded with 1 µM T3. An excerpt:
NIH Molecular Libraries Probe Production Network [MLPCN]
NIH Chemical Genomics Center [NCGC]
Assay Provider: R. Kip Guy, St. Jude Children's Research Hospital
Thyroid receptor (TR) regulates many homeostatic processes including basal metabolism, cardiovascular function, body weight, and lipid trafficking. TR modulators are potential therapeutics for obesity and hyperlipidemias but current thyroid analogs have undesirable side effects, particularly cardiac stimulation. To identify inhibitors that specifically prevent the interaction of TR with the steroid receptor coregulator 2 (SRC2), a fluorescence polarization assay was screened. This assay detects interaction of the ligand-binding domain of human TRb with a Texas Red labeled SRC2 peptide, corresponding to a 20 amino acid region of the nuclear receptor interaction domain (Arnold et al., 2006). Small molecule inhibitors that block the interaction of TR and SRC2 are detected by a decrease in fluorescence polarization.
Arnold, L. A.; Estebanez-Perpina, E.; Togashi, M.; Shelat, A.; Ocasio, C. A.; McReynolds, A. C.; Nguyen, P.; Baxter, J. D.; Fletterick, R. J.; Webb, P.; Guy, R. K. A high-throughput screening method to identify small molecule inhibitors of thyroid hormone receptor coactivator binding. Sci STKE 2006, p 13.
NCGC Assay Protocol Summary:
For screening, 5 uL/well 0.6 uM TRb and 20 nM SRC2 Texas Red in protein buffer (20mM Tris hydrochloride, 100mM NaCl, 10% glycerol, 1mM EDTA, 0.01% NP-40, 1mM DTT, 1uM T3 and 5% DMSO) was dispensed into black solid 1536-well plates (Grenier) using a solenoid-based dispenser. Following transfer of 23 nL compound or DMSO vehicle by a pin tool, the plates were centrifuged 15 s at 1000 RPM and incubated 5 hr at ambient temperature. […] Data were normalized to unbound (all components except TRb) and bound SRC2 Texas Red controls. In this assay, we provide % activity data for each concentration as well as potencies for the active compounds.
Keywords: NIH Roadmap, MLPCN, MLI, MLSMR, qHTS, NCGC, qHTS, thyroid hormone receptor, steroid receptor coactivator, fluorescence polarization
Background: qHTS replaces the single test concentration by a dilution series.

Where [1] appears, read: at 106 µM (top of the series) unless noted.

For `CCC(=O)N1C2C3N(C(=O)CC)C1C1N(C(=O)CC)C(C(N1C(=O)CC)N3C(=O)CC)N2C(=O)CC`, the activity change, negative = inhibition under setting [1] was inactive: -2.56%.

Turning to `COC(=O)c1cc2c(s1)N=C(c1ccccc1)N(C)P2(=O)N1CCOCC1` (configuration not stated), under setting [1], the activity change, negative = inhibition was inactive: -0.33%.

As for `Cc1ccc(OP(=O)(Nc2ccccn2)Oc2ccc(C)cc2)cc1`, under setting [1], the activity change, negative = inhibition was inactive: 1.59%.

As for `CC(=O)NC(SC(=S)N(CC(C)C)CC(C)C)C(Cl)(Cl)Cl` (configuration not stated), under setting [1], the activity change, negative = inhibition is inactive: -1.96%.

With `Cc1ccccc1OP(=O)(Nc1ccccn1)Oc1ccccc1C`, the activity change, negative = inhibition under setting [1] is inactive: 4.16%.

With `O=c1c2cc([N+](=O)[O-])ccc2[nH]c2c([N+](=O)[O-])cc([N+](=O)[O-])cc12`, the activity change, negative = inhibition under setting [1] was inactive: -4.01%.

Consider `CN(C)C(=O)Oc1noc2ccccc12`, for which, under setting [1], the activity change, negative = inhibition is inactive: 5.21%.

With `c1ccc(-c2nn[nH]n2)c(-c2nn[nH]n2)c1`, the activity change, negative = inhibition under setting [1] was inactive: -3.33%.

For the molecule `CCOC(=O)NC(Sc1ccccc1)C(Cl)(Cl)Cl` (configuration not stated), the activity change, negative = inhibition under setting [1] is inactive: 2.04%.

Regarding `Cc1ccc(NP(=O)(Oc2cccc(C)c2)Oc2cccc(C)c2)nc1`, the activity change, negative = inhibition under setting [1] is inactive: 2.12%.

As for `CCNC(=S)/N=C(\N)N[N+](=O)[O-]`, under setting [1], the activity change, negative = inhibition was inactive: 1.56%.

Take `O=C(NC1CCS(=O)(=O)C1)NP(=S)(Oc1ccccc1)Oc1ccccc1` (configuration not stated): under setting [1], the activity change, negative = inhibition is inactive: -2.44%.

For `C[C@H]1OP(=O)(Oc2ccccc2)C[C@@H]2O[C@@H]21` (some centres not stated), under setting [1], the activity change, negative = inhibition was inactive: 2.73%.

Regarding `C[C@@H]1C=CCP(=O)(Oc2ccccc2)O1` (some centres not stated), the activity change, negative = inhibition under setting [1] is inactive: 8.61%.

Turning to `CC(=O)Nc1ccc([As](=O)(O)O)c(O)c1`, the activity change, negative = inhibition under setting [1] was inactive: 0.15%.

`CC(=O)Nc1ccc(Oc2c([N+](=O)[O-])cc([N+](=O)[O-])cc2[N+](=O)[O-])cc1`: the activity change, negative = inhibition under setting [1] was inactive: -11.6%.

For the molecule `O=P1(Nc2nc3ccc(Cl)cc3s2)COc2ccccc2O1` (configuration not stated), the activity change, negative = inhibition under setting [1] is inactive: -19.4%.

With `CC(C)(C)C(=O)NC(Sc1ccccc1)C(Cl)(Cl)Cl` (configuration not stated), the activity change, negative = inhibition under setting [1] is inactive: -4.47%.

As for `CC(C)C(=O)NC(Sc1ccccc1)C(Cl)(Cl)Cl` (configuration not stated), the activity change, negative = inhibition under setting [1] is inactive: -6.86%.

As for `O=P(Nc1nccs1)(c1ccccc1)c1ccccc1`, the activity change, negative = inhibition under setting [1] is inactive: 1.5%.

In the case of `c1nnnn1CCn1cnnn1`, the activity change, negative = inhibition under setting [1] was inactive: -9.27%.

Consider `O=[As](O)(c1ccccc1)c1ccc(O)cc1`, for which the activity change, negative = inhibition under setting [1] was inactive: -0.203%.

As to `O=[N+]([O-])c1ncn(CCn2cnc([N+](=O)[O-])n2)n1`, the activity change, negative = inhibition under setting [1] is inactive: -9.12%.

Take `CC(=O)NC(SC(=S)N(C)C)C(Cl)(Cl)Cl` (configuration not stated): the activity change, negative = inhibition under setting [1] is inactive: -2.83%.

Consider `C(Cc1nn[nH]n1)Cc1nn[nH]n1`, for which the activity change, negative = inhibition under setting [1] was inactive: -3.58%.

Regarding `Nc1ccc([As](=O)(O)c2ccc([N+](=O)[O-])cc2)cc1`, the activity change, negative = inhibition under setting [1] is inactive: -2.29%.

As to `O=P(Nc1ccccn1)(c1ccc(Br)cc1)c1ccc(Br)cc1`, under setting [1], the activity change, negative = inhibition was inactive: 5.19%.

Take `Cc1cc([N+](=O)[O-])cc([N+](=O)[O-])c1O`: the activity change, negative = inhibition was inactive: 2.32% (at 106 µM (top of the series)) and inactive: -5.33% (at 201 µM (top of the series)).

Regarding `CN(C(=O)Cc1ccccc1)[C@H]1CC[C@@]2(CCCO2)C[C@@H]1N1CCCC1`, the activity change, negative = inhibition under setting [1] is inactive: 3.98%.

`O=P(Nc1nc2ccccc2s1)(c1ccccc1)c1ccccc1`: the activity change, negative = inhibition under setting [1] is inactive: -4.44%.

For the molecule `C[C@H]1OP(=O)(Oc2ccccc2)[C@H](O)[C@H](O)[C@H]1N=[N+]=[N-]` (some centres not stated), the activity change, negative = inhibition under setting [1] is inactive: 7.33%.
